# AlphaSeq binding of Ab-14 light chain variants to a spike HR2 peptide

From the AlphaSeq antibody data of Engelhart et al. 2022 (doi:10.1038/s41597-022-01779-4), copy in the FLAb collection.

Target peptide (SARS-CoV-2 spike, HR2 region): PDVDLGDISGINAS

Ab-14 is the parent antibody, in scFv form: VH, then a 15-residue (Gly4Ser)3 linker, then VL. The heavy chain is unchanged in all variants.
VH: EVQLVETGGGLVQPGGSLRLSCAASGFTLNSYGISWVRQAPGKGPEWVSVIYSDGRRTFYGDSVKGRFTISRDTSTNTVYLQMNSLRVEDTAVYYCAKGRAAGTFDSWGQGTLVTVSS
VL: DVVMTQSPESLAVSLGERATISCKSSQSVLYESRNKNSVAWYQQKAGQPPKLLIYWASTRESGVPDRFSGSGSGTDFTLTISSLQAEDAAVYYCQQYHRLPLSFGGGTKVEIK

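The parent was found by panning a naive human phage display library on the peptide. Variants in AAYL50 differ from the parent at up to three CDR positions; double and triple changes were sampled at random. AlphaSeq pools MATa yeast showing the antibodies with MATalpha yeast showing the peptide. After mating in shaken culture at 30 °C for 16 h, diploids were selected and their barcode pairs sequenced. Scores were corrected for input abundance and mapped to Kd with protein pairs of known affinity run in the same pool. The assay was run in three technical replicates.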

Changes read parent residue, position, new residue, counted from the first residue of the VL shown.
Numbers give log10(Kd / nM), so 0 is 1 nM and 3 is 1 µM. Smaller is tighter.
A mean of the replicates is given; it leaves out those without a signal.
An entry "no signal" has no value in the source: the pair was not observed among the diploids in any replicate. This suggests poor binding but is not conclusive.
Nonspecific signal, from three strains lacking the peptide, appeared in 18% of pairings of library AAYL50, centred on 4.19 (5% of these signals below 2.99); values are not corrected for it.

mean log10 Kd (nM)	replicates with signal	changes
0.85	3/3	Q27G L30S R99T
3.79	2/3	S28F T59F S62P
1.80	1/3	W56N E61K Q95E
no signal	0/3	E61T H98P R99K
3.91	2/3	N35D N37I Y97G
no signal	0/3	R34C N35V A57C
no signal	0/3	K36I R60D P101A
0.69	3/3	S25F R34P L102D
3.11	1/3	V29T H98N S103N
0.93	3/3	S26M V29A Y31Q
4.03	1/3	E32I S33I Y97N
4.71	3/3	Y31C A40K
0.21	3/3	S25C L30C H98Q
1.21	3/3	S28R T59I P101C
5.02	1/3	R99P L100S
1.10	3/3	S38N L100Y S103L
4.29	3/3	S28V Y31T S38K
2.41	3/3	S25H S58D R60K
no signal	0/3	T59S R99L P101H
4.61	3/3	S28N V29S Y97V
1.87	3/3	S28L V29E R60K
no signal	0/3	E61G P101K L102C
1.30	3/3	K36L R60P H98P
2.99	3/3	W56N R60N S103N
no signal	0/3	S33R A40C Q95D
no signal	0/3	E32N K36S Q95Y
no signal	0/3	E61R Q96T Y97P
5.42	1/3	V39N T59Q
1.79	3/3	L30E L100I
4.05	1/3	S28I V29N R60F
1.34	3/3	S33Q K36E R99E
4.01	2/3	E32Q A40M L102S
1.63	3/3	K24G S25A N37W
5.32	1/3	R34Y Q96D R99P
3.29	1/3	A57E R99K L102H
no signal	0/3	R34W R60M R99P
1.39	3/3	S26Y V29H T59W
no signal	0/3	V29Y Q96Y Y97V
0.66	3/3	E61V S62M Q95W
3.43	3/3	K36S R99N L102V
3.14	3/3	S26D Y97F L102H
0.67	3/3	S58D L100H P101W
1.68	3/3	Q95P H98Y
3.51	2/3	Y31W S33L A57Q
no signal	0/3	K24P Q27E E61N
4.31	2/3	S26Q R60A E61P
no signal	0/3	N35A S38F T59K
4.24	1/3	K36S E61S P101E
2.55	3/3	E32N N37L L100V
1.37	3/3	S26P S38H
no signal	0/3	Y31V Q96E L100I
2.07	3/3	S25W Q27Y S28E
3.74	2/3	E32L R34K L100E
3.61	3/3	S58N T59W R99W
2.56	3/3	S58I E61Q S62A
no signal	0/3	E32A R99S L102T

The opening 9 entries, copied out:

{"changes": "Q27G L30S R99T", "mean log10 Kd (nM)": "0.85", "replicates with signal": "3/3"}
{"changes": "S28F T59F S62P", "mean log10 Kd (nM)": "3.79", "replicates with signal": "2/3"}
{"changes": "W56N E61K Q95E", "mean log10 Kd (nM)": "1.80", "replicates with signal": "1/3"}
{"changes": "E61T H98P R99K", "mean log10 Kd (nM)": "no signal", "replicates with signal": "0/3"}
{"changes": "N35D N37I Y97G", "mean log10 Kd (nM)": "3.91", "replicates with signal": "2/3"}
{"changes": "R34C N35V A57C", "mean log10 Kd (nM)": "no signal", "replicates with signal": "0/3"}
{"changes": "K36I R60D P101A", "mean log10 Kd (nM)": "no signal", "replicates with signal": "0/3"}
{"changes": "S25F R34P L102D", "mean log10 Kd (nM)": "0.69", "replicates with signal": "3/3"}
{"changes": "V29T H98N S103N", "mean log10 Kd (nM)": "3.11", "replicates with signal": "1/3"}